Like-named read-outs stand apart in the source and are kept apart here.
Key:
CXCR4 = CXCR4 (Homo sapiens, UniProt P61073); test: β-arrestin recruitment, 384-well, Tango CXCR4-bla U2OS cells, normalized to SDF-1α; format: cell-based; details: for EC50: read-out: TANGO β-arrestin EC50
Description: UCUF-728 was further characterized in 384 w assays using SDF-1α from a different source than was used in the high throughput screening assay. […] Using this ligand source, UCUF-728 confirmed activation of β-arrestin recruitment with EC50=0.5 μM and Emax=30% normalized to SDF-1α (FIG. 2A).
Tango™ CXCR4-bla U2OS Cells (Invitrogen; K1779) were used for (β-arrestin recruitment assays and maintained as a monolayer culture in McCoy's 5a (Corning; 10-050-CV) supplemented with 10% dialyzed Fetal Bovine Serum (Gibco; 26400-044), 0.1 mM MEM Non-essential amino acids solution, 25 mM HEPES solution (Corning; 25-060-CI), 1 mM Sodium Pyruvate (Gibco; 11360-070), 200 μg/mL Zeocin selection reagent (Gibco; R25001), 50 μg/mL Hygromycin B (Gibco, 10687010), and 100 μg/mL Geneticin (G418 Sulfate) (Gibco, 10131035). U2OS cells were subcultured twice weekly by 0.05% Trypsin-EDTA treatment (Corning; 25-051-CI) and passaged to continue exponential growth phase for cell signaling assays. All cell cultures were maintained in cell culture incubators at 37° C. with 5% CO2. CHO-K1 CXCR4 cells (DiscoverX, Fremont, CA, USA) were used for cAMP inhibition assays and maintained as a monolayer culture in DMEM/F12 (Corning; 10-091-CV) supplemented with 10% Fetal Bovine Serum (Corning; 35-011-CV) and 100IU penicillin, […] streptomycin sulfate (Corning; 30-002-CI) and […] G418 (Gibco; 101310350. Cells were subculture 2 times weekly by o.o5% Trypsin-EDTA treatment (Corning; 25-051-CI) and passaged to continue exponential growth phase for cell signaling assays. All cell cultures were maintained in cell culture incubators at 37° C. with 5% CO2.CEM-CCRF cells (ATCC CCL-119) were used in both the migration and calcium flux assays and were cultured in growth media consisting of RPMI 1640 (Corning; 10-040-CV) supplemented with 10% Fetal Bovine Serum (Corning; 35-011-CV), and 100 IU penicillin, […] streptomycin sulfate (Corning; 30-002-CI). Cells were maintained in suspension and sub-cultured twice weekly to maintain cell densities between 0.8×10^6 cells/mL and 2.5×10^6 cells/mL to maintain exponential growth phase. Cells were harvested for use in migration and calcium flux assays at 2.0×10^6 cells/mL to 2.5×10^6 cells/mL and resuspended in assay media to desired density for respective experiments.
Compounds, SDF-1α (PeproTech; 30028A), and DMSO (Sigma Aldrich; St. Louis, MO) normalization to 0.5% were dispensed using the TECAN D300e digital dispenser into a 384-well black wall clear-bottom microplate (Corning; Corning, NY). Tango™ CXCR4-bla U2OS Cells were resuspended in assay media consisting of DMEM (Corning; Corning, NY) supplemented with 1% dialyzed Fetal bovine serum, 0.1 mM MEM Non-essential amino acids solution, 25 mM HEPES solution (Corning; Corning, NY), 1 mM Sodium Pyruvate and 100 IU penicillin, […] streptomycin sulfate (Corning; Corning, NY) at a density of 3.0×10^5 cells/ml. Assay media FreeStyle 293 expression Medium (Gibco; 12338018) was used for testing the thiadiazine scaffold CXCR4 agonists. Cells suspension was dispensed at 30 μl per well into assay plate and incubated overnight in a cell culture incubator at 37° C. with 5% CO2. For testing the thiadiazine scaffold CXCR4 agonists, following overnight incubation, CXCL12 ligand (PeproTech; 30028A), was dispensed manually and cells were incubated for additional 5 hours in a cell culture incubator. Following overnight incubation, LiveBlazer FRET B/G Loading Kit (Invitrogen; K1095) working reagent was prepared according to supplier guidelines and 6 μl of solution was dispensed into each well; 8 μL of solution for testing the thiadiazine scaffold CXCR4 agonists. Assay plate was covered and incubated in a dark place for two hours and Fluorescence Intensity was measured using the BMG LABTECH CLARIOstar Plus (BMG LABTECH Inc., Cary, NC) according to the LiveBlazer FRET B/G Loading Kit excitation and emission measurement guidelines. […]

The chains behind the UniProt entries cited, without tags or fusion partners.
UniProt P61073, whole entry: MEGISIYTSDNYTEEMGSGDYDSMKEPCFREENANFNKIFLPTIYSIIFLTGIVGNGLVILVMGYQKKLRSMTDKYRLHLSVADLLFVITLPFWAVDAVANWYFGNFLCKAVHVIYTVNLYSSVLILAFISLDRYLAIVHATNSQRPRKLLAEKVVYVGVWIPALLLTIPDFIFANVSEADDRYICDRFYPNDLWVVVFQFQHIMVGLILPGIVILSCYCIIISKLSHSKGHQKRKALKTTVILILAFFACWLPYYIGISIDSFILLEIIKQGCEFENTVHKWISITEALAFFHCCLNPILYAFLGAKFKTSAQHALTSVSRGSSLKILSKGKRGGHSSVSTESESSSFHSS

[1] = system: CEM-CCRF human lymphoblast cells; test: Transwell migration assay in CEM-CCRF lymphoblasts; format: cell-based; details: for EC50: read-out: Migration CEM EC50

Row | EC50 (CXCR4; normalized to SDF-1) | EC50 [1] | Compound | TANGO β-arrestin Emax (%) (CXCR4; normalized to SDF-1) | EC50 (CXCR4; Table 3, Formula IIc-1) | EC50 ([1]; Table 3, Formula IIc-1) | Migration CEM Emax (%) [1]
1 |  |  | CCOc1ccccc1-c1nnc2n1N=C(c1ccc3[nH]c(=O)[nH]c3c1)CS2 |  | > 10 µM | > 10 µM | 
2 | < 5 µM | < 5 µM | CCOc1ccccc1-c1nnc2n1N=C(c1ccc(O)cc1)CS2 | A (A ≥ 70) |  |  | A (A ≥ 70)
3 | > 10 µM | < 5 µM | CCOc1ccccc1-c1nnc2n1N=C(c1ccc(C(=O)N3CCC3)cc1)CS2 |  |  |  | B (35 < B < 70)

Row | Compound | EC50 (CXCR4; normalized to SDF-1) | EC50 [1] | TANGO β-arrestin Emax (%) (CXCR4; normalized to SDF-1) | EC50 (CXCR4; Table 3, Formula IIc-1) | EC50 ([1]; Table 3, Formula IIc-1) | Migration CEM Emax (%) [1]
4 | CCOC(=O)CNC(=O)c1ccc(C2=Nn3c(nnc3-c3ccccc3OCC)SC2)cc1 | < 5 µM | > 10 µM | C (C ≤ 35) |  |  | 
